Experimental data reported in ChEMBL document CHEMBL2331505, “Synthesis of quinoline derivatives: discovery of a potent and selective phosphodiesterase 5 inhibitor for the treatment of Alzheimer's disease” (Eur J Med Chem, 2013).

By UniProt entry, the sequences of proteins in these tests, tags left out. Where a name states a change or a piece, a line headed by the entry shows the natural chain unless it says otherwise.
UniProt O00408, whole entry: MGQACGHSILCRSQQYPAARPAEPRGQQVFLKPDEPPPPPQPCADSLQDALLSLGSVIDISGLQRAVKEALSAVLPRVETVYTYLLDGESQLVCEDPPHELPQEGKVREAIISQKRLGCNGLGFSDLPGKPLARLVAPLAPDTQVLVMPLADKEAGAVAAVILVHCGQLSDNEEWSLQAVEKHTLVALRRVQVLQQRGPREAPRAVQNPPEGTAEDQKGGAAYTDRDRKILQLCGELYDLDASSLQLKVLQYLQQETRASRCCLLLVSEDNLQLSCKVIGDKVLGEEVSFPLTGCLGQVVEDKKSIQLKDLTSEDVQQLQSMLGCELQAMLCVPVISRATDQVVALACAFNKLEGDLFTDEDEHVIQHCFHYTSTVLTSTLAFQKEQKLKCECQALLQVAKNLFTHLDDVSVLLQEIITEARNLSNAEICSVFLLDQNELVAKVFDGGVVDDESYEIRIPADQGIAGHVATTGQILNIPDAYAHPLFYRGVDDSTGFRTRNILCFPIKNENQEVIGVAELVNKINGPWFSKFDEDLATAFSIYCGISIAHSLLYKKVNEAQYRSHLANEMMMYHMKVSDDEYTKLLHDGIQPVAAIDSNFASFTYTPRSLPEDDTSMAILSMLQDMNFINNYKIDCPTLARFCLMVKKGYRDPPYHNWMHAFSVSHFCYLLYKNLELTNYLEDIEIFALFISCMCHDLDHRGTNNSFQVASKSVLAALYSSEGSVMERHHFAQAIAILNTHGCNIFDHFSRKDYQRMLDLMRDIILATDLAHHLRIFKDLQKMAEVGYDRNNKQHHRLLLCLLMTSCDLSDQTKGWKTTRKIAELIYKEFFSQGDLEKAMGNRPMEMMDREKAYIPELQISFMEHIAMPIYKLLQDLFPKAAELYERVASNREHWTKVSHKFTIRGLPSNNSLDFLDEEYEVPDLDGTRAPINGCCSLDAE
UniProt P27815: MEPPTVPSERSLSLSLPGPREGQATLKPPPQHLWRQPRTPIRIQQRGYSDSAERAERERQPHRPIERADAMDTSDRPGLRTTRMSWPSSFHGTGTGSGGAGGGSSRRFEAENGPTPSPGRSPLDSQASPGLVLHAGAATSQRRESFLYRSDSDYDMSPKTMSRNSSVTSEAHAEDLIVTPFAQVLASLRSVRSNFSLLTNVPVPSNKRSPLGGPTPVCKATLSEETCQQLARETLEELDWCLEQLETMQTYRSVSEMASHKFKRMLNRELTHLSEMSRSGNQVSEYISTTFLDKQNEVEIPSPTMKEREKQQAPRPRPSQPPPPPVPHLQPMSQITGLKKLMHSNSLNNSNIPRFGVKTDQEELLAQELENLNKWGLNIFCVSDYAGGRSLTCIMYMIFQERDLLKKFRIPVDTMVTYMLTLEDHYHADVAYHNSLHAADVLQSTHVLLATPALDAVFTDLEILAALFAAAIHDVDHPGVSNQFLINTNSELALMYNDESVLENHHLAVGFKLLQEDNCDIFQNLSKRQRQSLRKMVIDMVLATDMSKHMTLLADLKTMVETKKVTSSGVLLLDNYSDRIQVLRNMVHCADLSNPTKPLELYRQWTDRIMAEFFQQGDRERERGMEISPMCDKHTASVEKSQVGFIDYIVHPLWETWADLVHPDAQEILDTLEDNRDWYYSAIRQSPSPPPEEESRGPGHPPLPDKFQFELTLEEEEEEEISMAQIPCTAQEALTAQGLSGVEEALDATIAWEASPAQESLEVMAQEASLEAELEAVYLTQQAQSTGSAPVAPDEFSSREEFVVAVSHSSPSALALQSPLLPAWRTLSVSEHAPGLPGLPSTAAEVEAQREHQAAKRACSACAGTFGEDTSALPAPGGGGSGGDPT
UniProt Q08499: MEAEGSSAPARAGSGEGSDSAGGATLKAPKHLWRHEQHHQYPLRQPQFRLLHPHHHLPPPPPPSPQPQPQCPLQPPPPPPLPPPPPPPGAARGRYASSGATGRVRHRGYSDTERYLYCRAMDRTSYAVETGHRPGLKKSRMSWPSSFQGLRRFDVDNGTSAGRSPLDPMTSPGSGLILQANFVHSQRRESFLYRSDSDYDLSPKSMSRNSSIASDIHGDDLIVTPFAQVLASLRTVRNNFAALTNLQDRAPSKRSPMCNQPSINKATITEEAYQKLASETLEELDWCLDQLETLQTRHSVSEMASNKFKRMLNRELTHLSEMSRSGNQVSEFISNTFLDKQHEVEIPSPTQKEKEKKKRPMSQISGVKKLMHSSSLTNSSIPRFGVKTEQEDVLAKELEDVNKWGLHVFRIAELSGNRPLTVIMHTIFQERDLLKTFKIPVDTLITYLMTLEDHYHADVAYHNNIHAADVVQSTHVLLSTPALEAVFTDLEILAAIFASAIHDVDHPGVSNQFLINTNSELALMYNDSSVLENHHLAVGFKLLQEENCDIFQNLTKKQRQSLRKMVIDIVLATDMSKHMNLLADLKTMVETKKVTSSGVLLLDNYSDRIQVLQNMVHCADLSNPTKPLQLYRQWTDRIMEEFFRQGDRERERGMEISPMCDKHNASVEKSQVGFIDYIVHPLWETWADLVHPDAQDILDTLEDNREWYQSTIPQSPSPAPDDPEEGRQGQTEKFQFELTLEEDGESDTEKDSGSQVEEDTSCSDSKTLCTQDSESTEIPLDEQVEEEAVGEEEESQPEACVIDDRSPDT
UniProt Q07343: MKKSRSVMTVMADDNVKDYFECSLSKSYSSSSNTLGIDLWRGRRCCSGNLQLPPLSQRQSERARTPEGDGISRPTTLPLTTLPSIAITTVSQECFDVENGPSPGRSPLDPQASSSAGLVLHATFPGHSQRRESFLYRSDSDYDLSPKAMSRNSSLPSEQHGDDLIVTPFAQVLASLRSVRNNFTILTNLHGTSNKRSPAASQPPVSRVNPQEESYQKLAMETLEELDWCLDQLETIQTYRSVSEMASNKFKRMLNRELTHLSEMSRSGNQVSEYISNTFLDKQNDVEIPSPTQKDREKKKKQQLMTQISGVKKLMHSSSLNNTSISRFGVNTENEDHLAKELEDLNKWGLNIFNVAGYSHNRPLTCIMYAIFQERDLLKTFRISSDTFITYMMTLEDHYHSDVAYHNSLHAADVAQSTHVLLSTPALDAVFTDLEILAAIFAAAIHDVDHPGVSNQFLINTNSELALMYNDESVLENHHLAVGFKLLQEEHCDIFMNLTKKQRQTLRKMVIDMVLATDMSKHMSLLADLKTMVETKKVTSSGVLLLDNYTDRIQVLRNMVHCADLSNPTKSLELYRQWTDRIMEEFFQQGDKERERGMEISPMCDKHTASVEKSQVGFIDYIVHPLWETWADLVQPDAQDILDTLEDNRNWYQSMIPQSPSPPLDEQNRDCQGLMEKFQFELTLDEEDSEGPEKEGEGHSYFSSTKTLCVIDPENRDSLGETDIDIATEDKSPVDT
UniProt Q08493: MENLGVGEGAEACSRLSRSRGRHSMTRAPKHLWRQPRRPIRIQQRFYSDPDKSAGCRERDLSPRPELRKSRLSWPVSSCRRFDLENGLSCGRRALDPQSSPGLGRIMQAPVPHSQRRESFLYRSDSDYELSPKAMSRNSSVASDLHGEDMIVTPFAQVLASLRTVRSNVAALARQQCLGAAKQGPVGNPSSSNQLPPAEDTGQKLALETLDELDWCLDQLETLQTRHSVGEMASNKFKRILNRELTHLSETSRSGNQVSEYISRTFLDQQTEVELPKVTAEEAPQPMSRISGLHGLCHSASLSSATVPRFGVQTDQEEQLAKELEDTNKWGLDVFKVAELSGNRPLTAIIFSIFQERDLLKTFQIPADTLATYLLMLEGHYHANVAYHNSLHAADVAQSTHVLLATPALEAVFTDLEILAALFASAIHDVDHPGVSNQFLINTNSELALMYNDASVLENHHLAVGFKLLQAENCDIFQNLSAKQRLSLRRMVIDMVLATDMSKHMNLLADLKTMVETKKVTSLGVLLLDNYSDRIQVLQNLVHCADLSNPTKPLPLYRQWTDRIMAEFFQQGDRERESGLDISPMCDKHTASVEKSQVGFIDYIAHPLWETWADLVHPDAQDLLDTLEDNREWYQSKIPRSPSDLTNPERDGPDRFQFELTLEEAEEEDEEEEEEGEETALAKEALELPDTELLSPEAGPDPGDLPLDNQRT

What was measured:
[1] = target: cGMP-dependent 3',5'-cyclic phosphodiesterase (Homo sapiens, UniProt O00408); experiment: Inhibition of PDE2 (unknown origin) using FAM-cGMP and FAM-cAMP as substrate after 60 mins by fluorescence assay
Summary of the method: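 PDE enzyme reaction run 60 min at room temperature in PDE assay buffer with 100 nM FAM-cGMP or FAM-cAMP substrate, 0.125 ng PDE and test compound. A 1:100 diluted binding agent was then added.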

Phosphodiesterase 4 = Phosphodiesterase 4 (Homo sapiens, UniProt P27815+Q08499+Q07343+Q08493); experiment: Inhibition of PDE4 (unknown origin) using FAM-cAMP as substrate after 60 mins by fluorescence assay; type: protein assay

IC50 [1] [µM] | IC50 (Phosphodiesterase 4) [µM] | Compound
> 10 | – | CCCc1nn(C)c2c(=O)[nH]c(-c3cc(S(=O)(=O)N4CCN(C)CC4)ccc3OCC)nc12
– | 9.2 | CN1CC(=O)N2[C@H](c3ccc4c(c3)OCO4)c3[nH]c4ccccc4c3C[C@@H]2C1=O
